## Measured affinities in a library of Ab-91 heavy chain variants

From the AlphaSeq antibody data of Engelhart et al. 2022 (doi:10.1038/s41597-022-01779-4), copy in the FLAb collection.

The target is the same throughout: PDVDLGDISGINAS, from the HR2 region of SARS-CoV-2 spike.

Parent scFv Ab-91: VL joined to VH by three GGGGS repeats. Changes lie in the heavy chain CDRs alone.
VL: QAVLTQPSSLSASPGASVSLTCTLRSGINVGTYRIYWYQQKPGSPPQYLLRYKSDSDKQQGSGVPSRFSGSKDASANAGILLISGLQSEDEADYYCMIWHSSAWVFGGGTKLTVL
VH: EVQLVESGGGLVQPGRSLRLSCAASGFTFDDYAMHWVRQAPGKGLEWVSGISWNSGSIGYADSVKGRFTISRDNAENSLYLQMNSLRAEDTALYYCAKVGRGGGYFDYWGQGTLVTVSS

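The parent was found by panning a naive human phage display library on the peptide. Library AAYL51 holds single substitutions and randomly drawn double and triple substitutions in the CDRs. The assay is AlphaSeq: two haploid yeast populations carry antibody and antigen on their surface. Mating (16 h, 30 °C) was followed by selection of diploids and sequencing of their barcodes. Read counts were normalised to the haploid input and turned into Kd by a linear fit to BCL2-family pairs of known affinity, for each replicate. Mating was done three times.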

Changes read parent residue, position, new residue, counted from the first residue of the VH shown. Scale: log10 of Kd in nM, estimated from mating counts; low values are strong binders. The mean shown is taken over the replicates in which the pair was detected. "nd" marks a missing value. The strain was present, yet no cells mated with the target were sequenced in that replicate, which points to weak or no binding. For reference, the parent read 1.86 as the reference entry and 0.88 as a member of this library.

changes	replicates, log10 nM	mean log10 Kd (nM)	signal with controls
G56S+G103K+Y108S	nd / nd / nd	nd	0/9
G26R+G59D+Y108C	4.12 / nd / nd	4.12	2/9 (4.14)
I51V+D62M+Y105R	5.79 / 4.16 / nd	4.97	4/9 (3.96)
H35R+I58Q+G102F	nd / 4.69 / nd	4.69	0/9
F27C+M34Q+G59N	5.57 / nd / nd	5.57	8/9 (4.51)
M34S+Y105A+F106K	3.96 / nd / nd	3.96	2/9 (4.94)
G100A+Y108A	4.34 / 2.72 / 2.44	3.16	1/9 (4.49)
F27N+S55M+D62W	4.48 / 4.53 / nd	4.51	0/9
F29R+N54E+V99S	4.50 / nd / 4.91	4.71	2/9 (4.69)
F27A+S52D+R101L	3.94 / nd / nd	3.94	0/9
G50T+G103K+Y105L	nd / nd / nd	nd	1/9 (4.19)
A33E+I51F+A61R	nd / nd / nd	nd	3/9 (4.51)
T28K+Y32S+G100A	3.78 / 3.20 / 4.06	3.68	0/9
D30L+G50Y+W53L	nd / 3.95 / nd	3.95	3/9 (4.64)
F29A+Y32D+G100M	4.79 / nd / nd	4.79	3/9 (4.43)
F29C+H35E+V99Y	nd / 5.54 / nd	5.54	5/9 (4.79)
A33G+S52H+K65I	nd / nd / nd	nd	0/9
D30L+I51N+G104P	4.53 / 5.47 / nd	5.00	4/9 (4.73)
I51G+N54Q+S55H	nd / 4.79 / 4.11	4.45	0/9
T28I+A33E+G59Q	nd / nd / nd	nd	0/9
N54M+I58W+D62L	nd / nd / nd	nd	0/9
S57K	3.75 / 2.95 / 4.78	3.83	0/9
D62C+R101L+F106Q	2.83 / 3.26 / 3.50	3.20	5/9 (4.24)
M34V+G50E+A61S	nd / nd / nd	nd	0/9
S52N+N54T+D107V	nd / nd / nd	nd	1/9 (3.49)
S57G+A61Y+G100F	4.57 / nd / nd	4.57	4/9 (4.30)
T28C+G59H+G103Q	nd / nd / nd	nd	2/9 (3.74)
D30E+M34E+V64G	nd / nd / nd	nd	0/9
G50D+W53E	6.16 / 3.94 / nd	5.05	4/9 (4.48)
R101F+Y105T+Y108N	1.68 / 1.67 / 2.08	1.81	1/9 (3.79)
A33R+G59F+D107W	nd / 5.41 / 6.07	5.74	3/9 (5.10)
T28D+D30E+D31C	nd / nd / nd	nd	0/9
Y32M+S63C	2.54 / 2.96 / 3.38	2.96	2/9 (3.18)
A33D+G104M	nd / 3.81 / nd	3.81	3/9 (3.98)
F29H+D62Y+K65Y	nd / nd / nd	nd	0/9
T28D+K65E+G102I	3.59 / 3.39 / 2.87	3.29	3/9 (4.09)
K65P+G103K+Y108F	4.83 / nd / 4.82	4.82	1/9 (4.21)
A33Y+G102M+D107S	4.19 / nd / 4.18	4.19	1/9 (5.64)
F29N+A33P+N54P	nd / nd / nd	nd	0/9
G26W+A33L+D107E	nd / nd / nd	nd	5/9 (4.48)
D31L+A33P+S63E	nd / nd / nd	nd	0/9
H35W+S63C+G100S	4.47 / 4.74 / 5.66	4.96	8/9 (4.88)
D30W+I51P+R101K	nd / nd / nd	nd	1/9 (3.62)
H35C+W53M+Y105E	3.93 / 3.80 / 4.62	4.11	2/9 (4.09)

Extract of 6 entries:

changes	replicates, log10 nM	mean log10 Kd (nM)	signal with controls
S57K	3.75 / 2.95 / 4.78	3.83	0/9
G26R+G59D+Y108C	4.12 / nd / nd	4.12	2/9 (4.14)
F27A+S52D+R101L	3.94 / nd / nd	3.94	0/9
F29C+H35E+V99Y	nd / 5.54 / nd	5.54	5/9 (4.79)
Y32M+S63C	2.54 / 2.96 / 3.38	2.96	2/9 (3.18)
N54M+I58W+D62L	nd / nd / nd	nd	0/9

Nonspecific signal, from three strains lacking the peptide, appeared in 21% of pairings of library AAYL51, centred on 4.54 (5% of these signals below 3.26); values are not corrected for it. The control count says in how many pairings with the empty strains this scFv gave a signal, with their mean in brackets.